According to patent publication US20070276030A1, “Pyranobenzothiophene derivatives to treat infection with hepatitis c virus” (priority 2003, published 2007):

System: Hepatitis C virus replicon (1b) in Clone A cells
Assay: HCV replicon ELISA in Clone A cells (Huh-7 derived)
Type: cell-based
Settings: 3 days
Experimental: The ability of the compounds of the present invention to inhibit Hepatitis C virus replicon constitutively expressed in a human liver cell line was established by the following experimental procedure:
Clone A cells (licensed from Apath, LLC) are derived from Huh-7 cells (human hepatoma cell line) and constitutively express the HCV replication proteins with concomitant amplification the HCV replicon (1b) genome. Cells are maintained and passaged in DMEM/10% FCS/1 mg/ml G418 (Geneticin from Gibco #11811-023; other media components as described below in “Elisa media”). Care is taken to maintain cell monolayers at a subeonfluent state by 1:3 or 1:4 passages every 3-4 days. The replicon is extremely sensitive to the cellular metabolism/proliferation state and replicon copy number will rapidly decline in confluent monolayers (resting cells). Under ideal conditions each cell has, on average, 1000 copies of the HCV replicon genome.
10 μl of compounds (in DMSO) are added to column 3 of the mother plate. 5 μl of DMSO are added to the remaining columns. Mother plates are set aside until ready for serial dilution to be performed.
Prepare cell plates (daughter plates) by adding 52 μl of Elisa media to each well.
In Mother plates, serially transfer 50 μl/well from column 3 through column 12. […]
Read plates with optical density (O.D.) 450 filter. […]

In the case of “Interferon-a2: reference compound of the HCV replicon ELISA assay”, the “IC50 in replicon ELISA (reference compound)” value is reported as 4-30 U/ml.
